In patent publication US6608083B1, “Quinoline derivatives(2)” (SmithKline Beecham Farmaceutici S.p.A, priority 1994, dated 2003):
pKi: −log10 of the molar value.

Protein sequences, listed by entry. Tags and fused reporters are not part of them.
UniProt P30098, whole entry: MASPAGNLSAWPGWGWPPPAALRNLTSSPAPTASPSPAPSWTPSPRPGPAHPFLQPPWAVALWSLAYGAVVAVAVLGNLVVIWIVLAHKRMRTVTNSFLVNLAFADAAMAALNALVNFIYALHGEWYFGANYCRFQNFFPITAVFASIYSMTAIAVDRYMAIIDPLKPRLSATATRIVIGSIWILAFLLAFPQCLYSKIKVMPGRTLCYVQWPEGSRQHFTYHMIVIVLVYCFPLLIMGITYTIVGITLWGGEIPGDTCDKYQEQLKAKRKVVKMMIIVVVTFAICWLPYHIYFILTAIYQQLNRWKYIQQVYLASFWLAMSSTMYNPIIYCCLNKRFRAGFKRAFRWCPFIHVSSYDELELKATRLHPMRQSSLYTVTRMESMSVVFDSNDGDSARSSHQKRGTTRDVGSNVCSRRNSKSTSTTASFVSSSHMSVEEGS

Molecular target: NK3 receptor (Cavia porcellus, UniProt P30098)
Assay: Binding: displacement of [3H]-Senktide / [125I]-[Me-Phe7]-NKB, guinea-pig cortex membranes

pKi: 8.32
SMILES: CC[C@H](NC(=O)c1c(O)c(-c2ccccc2)nc2ccccc12)c1ccccc1 [Example 85, (S)-N-(α-ethylbenzyl)-3-hydroxy-2-phenylquinoline-4-carboxamide]
